Reference: ChEMBL document CHEMBL4350967, “The Trifluoromethyl Group as a Bioisosteric Replacement of the Aliphatic Nitro Group in CB1 Receptor Positive Allosteric Modulators” (J Med Chem, 2019)

Key:
[1] = Half life in rat liver microsomes at 3 uM in presence of NADPH by LC-MS/MS analysis; format: ADME, Microsome
[2] = Half life in human liver microsomes at 3 uM in presence of NADPH by LC-MS/MS analysis; format: ADME, Microsome

Row | Compound | t1/2 [1] [min] | t1/2 [2] [min]
1 | N#CCC(c1ccccc1)c1c(-c2ccccc2)[nH]c2ccccc12 (racemic) | 14.5 | 42.7
2 | N#CC(C#N)C(c1ccccc1)c1c(-c2ccccc2)[nH]c2ccccc12 (racemic) | 14.8 | 26.2
3 | Cc1ccc2c(C(C(=O)C(F)(F)F)c3ccccc3)c(-c3ccccc3)[nH]c2c1 (racemic) | 24.8 | 267
4 | O=C(C(c1ccccc1)c1c(-c2ccccc2)[nH]c2ccccc12)C(F)(F)F (racemic) | 41.4 | 51.1
5 | Cc1ccc2c(C(CC#N)c3ccccc3)c(-c3ccccc3)[nH]c2c1 (racemic) | 18.7 | 45.7
6 | FC(F)(F)CC(c1ccccc1)c1c(-c2ccccc2)[nH]c2cc(Cl)ccc12 (racemic) | 78 | 98.6
7 | Cc1ccc2c(C(CC(F)(F)F)c3ccccc3)c(-c3ccccc3)[nH]c2c1 (racemic) | 28.2 | 87.2
8 | Cc1ccc2c(C(c3ccccc3)C(C#N)C#N)c(-c3ccccc3)[nH]c2c1 (racemic) | 12.4 | 39.3
9 | FC(F)(F)CC(c1ccco1)c1c(-c2ccccc2)[nH]c2cc(Cl)ccc12 (racemic) | 46.3 | 63.9
10 | FC(F)(F)CC(c1cccs1)c1c(-c2ccccc2)[nH]c2cc(Cl)ccc12 (racemic) | 54.3 | 157
11 | Cc1ccc2c(C(CC(F)(F)F)c3ccco3)c(-c3ccccc3)[nH]c2c1 (racemic) | 10.3 | 59.1
12 | Cc1ccc2c(C(CC3CC3)CC(F)(F)F)c(-c3ccccc3)[nH]c2c1 (racemic) | 19.8 | 74.4
13 | Cc1ccc2c(C(CC(F)(F)F)c3cccs3)c(-c3ccccc3)[nH]c2c1 (racemic) | 17.5 | 108
14 | FC(F)(F)CC(c1ccccc1)c1c(-c2ccccc2)[nH]c2ccccc12 (racemic) | 40.7 | 85.2
